Compounds with a hit are over-represented: about 2.2% of the library has one in this group of screens.
miR-21 reporter: miR-21 reporter, rising signal; HeLa miR-21 FLuc reporter, luciferase, 48 h; Potency, µM (titrated, usually from 38.3 µM); 340,000 tested, under 10 active; AID 2288; active = well fitted rising curve with a large enough effect; inconclusive = small, poorly fitted or top-dose-only effect; inactive = no such curve, though single readings can be large or run the other way;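 also: miR-21 action dims this reporter so a rising signal means less miR-21 action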
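Luminescence from a firefly luciferase reporter carrying a miR-21 binding site downstream, stably expressed under a CMV promoter in HeLa cells that make miR-21 endogenously, reports miRNA modulation after 48 h compound exposure up to approximately 40uM final.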
GALK inh: blocks human galactokinase activity; AID 1868; P51570; Potency, µM (series often up to 57.5 µM), hits mostly inhibitors; Purified GALK, Kinase-Glo residual ATP luminescence; 270,000 tested, 0.007% active
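Human GALK (5 nM) with 35 uM ATP and 100 uM galactose in 20 mM HEPES pH 8.0, 5 mM MgCl2, 60 mM NaCl, 1 mM DTT, 0.01% BSA. After 1 h at room temperature, leftover ATP was read by Kinase-Glo Plus luminescence.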
PI4K2A block: PI4K2A (human) kinase inhibition; purified PI4K2A, ADP-Glo luminescence, 1 h; hits give low values; Q9BTU6; 420,000 tested, 0.13% active; activity change, negative = inhibition, % at 76.9 µM; in the data active = activity change below about -50%; inconclusive = mostly about -30% to -49%
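In this quantitative HTS, ADP production by PI4K2A was quantified luminescently after 1 h at ambient temperature; 100 microM adenosine served as plate-quality control.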
Nrf2 inh: Nrf2 pathway inhibition. A549 ARE-Fluc reporter, luciferase luminescence, 18-24 h. Potency, µM (top dose mostly 46 µM), actives largely listed as inhibitors. 360,000 tested, 2.1% active; note: nearly all actives have a fitted effect of over 60% in size
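Quantitative HTS in A549 cells stably bearing an antioxidant response element-firefly luciferase construct. Inhibition of Nrf2-driven transcription was scored by luminescence after 18-24 h of compound exposure at 37 °C.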
Nrf2 ARE act: activates Nrf2 signaling; AREc32 ARE-luciferase reporter (MCF7-derived line), luminescence, 24 h; Potency, µM (top dose mostly 46.1 µM), usual class: activators; 410,000 tested, 0.31% active; note: nearly all actives have a fitted effect of over 65% in size
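Steps: seed AREc32_Fluc cells (1000/well, 5% FBS OPTI-MEM); incubate overnight at 37 deg C; add 23 nL compound; incubate 24 hr; add Steady-Glo; hold 30 min RT; read luminescence.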
A549 tox-1: counter-screen for Nrf2 inhibitors: cytotoxicity in A549 cells; Potency, µM (doses to about 46 µM), usual class: inhibitors; AID 504648; 390,000 tested, 0.16% active; A549 ARE-Fluc cells, CellTiter-Fluor viability, 18-24 h
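Cytotoxicity counterscreen: CellTiter-Fluor fluorescence was measured in A549 ARE_Fluc cells after 18-24 h of compound exposure in a concentration series. The subsequent BugLite luminescent read reports ARE-luciferase activity.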
FLuc enzyme inh: blocks purified firefly luciferase in Nrf2 counterscreen. shares compounds with Nrf2 inh. purified firefly luciferase, luminescence inhibition. 1,400 tested, 4% active. Potency, µM (doses to about 57.5 µM), hits mostly inhibitors; note: nearly all actives have a fitted effect of over 65% in size
A549 tox-2: toxic to A549 ARE-Fluc cells in Nrf2 counterscreen; shares compounds with Nrf2 inh; A549 ARE-Fluc cells, cytotoxicity counterscreen; Potency, µM (top dose mostly 46.1 µM), most hits filed as inhibitors; 1,400 tested, 2% active;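 note: cells exposed to compounds for 18 to 24 hours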
ARE-Fluc inh: confirmation of Nrf2 inhibitors in A549 ARE reporter cells. 1,400 tested, 74% active. A549 ARE-firefly luciferase reporter, luminescence. Potency, µM (top dose mostly 46.1 µM), actives largely listed as inhibitors. shares compounds with Nrf2 inh; note: nearly all actives have a fitted effect of over 65% in size
A number is an active result; . = inactive; ? = inconclusive; / = no result. Unless noted, calls come from the whole dose curve; as a rule, active = well fitted curve in the direction sought with a large enough effect; inconclusive = small, poorly fitted or top-dose-only effect, or another doubt; inactive = no such curve, though single readings can be large; an effect the other way counts as inactive or inconclusive.

SMILES | miR-21 reporter | GALK inh | PI4K2A block | Nrf2 inh | Nrf2 ARE act | A549 tox-1 | FLuc enzyme inh | A549 tox-2 | ARE-Fluc inh
CC1=C(C(=O)NC2CCCc3c2cnn3-c2cccc(C)c2C)OCCO1 (stereo unspecified) | . | . | . | 7.31µM | . | . | . | . | 11.6µM
CCOC(=O)c1ccc(Nc2nc3nonc3nc2Nc2cccc(C)c2C)cc1 | ? | / | . | 2.31µM | . | ? | 15.1µM | ? | 5.8µM
COC(=O)[C@]12C[C@H](CC(=O)NCc3ccccc3)C(=O)N(Cc3ccco3)C1=C[C@H](COCc1ccccc1)O[C@@H]2C | / | / | . | / | / | / | / | / | /
Cc1nn(C)c(C)c1CN(Cc1nc(CCC(C)C)no1)C(C)C | . | . | . | 1.3µM | . | . | . | . | ?
CC(=O)c1cc(-c2ccc(Cl)c(C(F)(F)F)c2)c(=O)n2c1CCC2 | / | / | . | / | / | / | / | / | /
Cc1oc(-c2ccc(Cl)cc2)nc1CN1CCCC(C(=O)N2CCN(C(=O)c3ccco3)CC2)C1 (stereo unspecified) | ? | . | . | 3.26µM | . | . | . | . | 6.51µM
Cc1oc(-c2ccc(Cl)cc2)nc1CN1CCCC(C(=O)N2CCOCC2)C1 (stereo unspecified) | . | . | . | ? | . | . | / | / | /
Cc1nn(C)cc1NC(=O)C[C@H]1CC[C@H]2[C@@H](COc3ccc(NC(=O)Nc4ccccc4)cc3C(=O)N2C)O1 | / | / | . | / | / | / | / | / | /
COC(=O)[C@]12C[C@H](CC(=O)NCc3cccs3)C(=O)N(Cc3ccco3)C1=C[C@H](C1CCCC1)O[C@@H]2C | / | / | . | / | / | / | / | / | /
Cc1cc(-n2c(C)cc(C(=O)CSc3ncnc4ccccc34)c2C)no1 | . | . | . | 4.61µM | . | ? | ? | . | 16.4µM
Cc1cc(C(=O)CSc2ncnc3ccccc23)c(C)n1C1CC1 | / | / | . | . | . | . | / | / | /
COc1ccc2[nH]c3c(c2c1)CCN1C(=O)C(CC(=O)NCc2cccc(C(F)(F)F)c2)C[C@H](C(=O)N2CCCCC2)[C@@]31CCc1ccccc1 (stereo partly specified) | / | / | . | 6.51µM | . | . | . | . | 20.6µM
CCCCCC[C@H](CN(CCCC)S(C)(=O)=O)c1ccccc1 | / | / | . | / | / | / | / | / | /
C(=C\c1ccnc2ccccc12)/c1cc2c3c(c1)CCCN3CCC2 | / | / | / | / | / | / | . | . | 7.31µM
Oc1ccc(/C=C/c2ccnc3ccccc23)cc1 | . | / | . | ? | ? | ? | / | / | /
O=C(C1CC1)C1(C(=O)N2CCOCC2)CC(c2ccccn2)=NO1 (stereo unspecified) | / | / | . | / | / | / | / | / | /
COC(=O)c1cc(-c2ccc(F)c(Cl)c2)c(=O)n2c1CCC2 | / | / | . | / | / | / | / | / | /
O=C(N/N=C/c1sc(N2CCOCC2)nc1-c1ccccc1)c1cccc(S(=O)(=O)N2CCCC2)c1 | ? | . | . | 2.59µM | . | ? | . | . | 23.1µM
O=C(N/N=C/c1sc(N2CCOCC2)nc1-c1ccccc1)c1ccc(O)cc1 | . | . | . | . | . | . | / | / | /
Cc1nn(CCC(=O)NNC(=O)Nc2ccc(F)cc2)c(C)c1[N+](=O)[O-] | / | / | . | / | / | / | / | / | /
CC(=O)CC[C@H]1CC[C@]2(CCCN(S(=O)(=O)c3ccccc3)C2)O1 | / | / | . | / | / | / | / | / | /
O=S(=O)(c1ccccc1Cl)N1CCCC1c1nc(-c2ccc(Cl)cc2)no1 (stereo unspecified) | . | . | . | 5.8µM | . | . | . | . | 13µM
O=S(=O)(c1ccc(Cl)cc1)N1CCCC(c2nc(-c3ccc(F)cc3)no2)C1 (stereo unspecified) | / | / | . | ? | . | . | / | / | /
